# Results: patent publication US20230346784A1 (priority 2020, published 2023)
# Entries after “also recorded” stand apart in the source; their conditions may differ.
# B1: eculizumab (antibody, chains of the INN, looked up)
# heavy: QVQLVQSGAEVKKPGASVKVSCKASGYIFSNYWIQWVRQAPGQGLEWMGEILPGSGSTEYTENFKDRVTMTRDTSTSTVYMELSSLRSEDTAVYYCARYFFGSSPNWYFDVWGQGTLVTVSSASTKGPSVFPLAPCSRSTSESTAALGCLVKDYFPEPVTVSWNSGALTSGVHTFPAVLQSSGLYSLSSVVTVPSSNFGTQTYTCNVDHKPSNTKVDKTVERKCCVECPPCPAPPVAGPSVFLFPPKPKDTLMISRTPEVTCVVVDVSQEDPEVQFNWYVDGVEVHNAKTKPREEQFNSTYRVVSVLTVLHQDWLNGKEYKCKVSNKGLPSSIEKTISKAKGQPREPQVYTLPPSQEEMTKNQVSLTCLVKGFYPSDIAVEWESNGQPENNYKTTPPVLDSDGSFFLYSRLTVDKSRWQEGNVFSCSVMHEALHNHYTQKSLSLSLG
# light: DIQMTQSPSSLSASVGDRVTITCGASENIYGALNWYQQKPGKAPKLLIYGATNLADGVPSRFSGSGSGTDFTLTISSLQPEDFATYYCQNVLNTPLTFGQGTKVEIKRTVAAPSVFIFPPSDEQLKSGTASVVCLLNNFYPREAKVQWKVDNALQSGNSQESVTEQDSKDSTYSLSSTLTLSKADYEKHKVYACEVTHQGLSSPVTKSFNRGEC
# notes: anti-C5 antibody (Alexion pharmaceuticals)
# Key:
# Assay type in all cases: cell-based, human
# [1] = tested on: C3c deposition on TF1PIGAnull cells
# [2] = tested on: C5b-9 deposition on TF1PIGAnull cells
# TF1PIGAnull cells = tested on: TF1PIGAnull cells
molecule,measurement,setting,value
B1,C3c deposition induced by S1 and S2,[1],does not block
same,S1-induced C3c deposition,[1],but not eculizumab; also recorded: but not C3c accumulation
same,S2-induced C3c deposition,[1],but not eculizumab
same,C5b-9 deposition induced by S1 and S2,[2],inhibited; also recorded: blocks
same,S1-induced C5b-9 deposition,[2],blocking; also recorded: prevented
same,S2-induced C5b-9 deposition,[2],blocking
same,cell killing in the mHam assay induced by S1 and S2,TF1PIGAnull cells,inhibited; also recorded: blocks
